Two substances from paper PMC5238433 (Scientific Reports, 2017) can be followed below.

The chains behind the UniProt entries cited, without tags or fusion partners. Where a name states a change or a piece, a line headed by the entry shows the natural chain unless it says otherwise.
UniProt P35414: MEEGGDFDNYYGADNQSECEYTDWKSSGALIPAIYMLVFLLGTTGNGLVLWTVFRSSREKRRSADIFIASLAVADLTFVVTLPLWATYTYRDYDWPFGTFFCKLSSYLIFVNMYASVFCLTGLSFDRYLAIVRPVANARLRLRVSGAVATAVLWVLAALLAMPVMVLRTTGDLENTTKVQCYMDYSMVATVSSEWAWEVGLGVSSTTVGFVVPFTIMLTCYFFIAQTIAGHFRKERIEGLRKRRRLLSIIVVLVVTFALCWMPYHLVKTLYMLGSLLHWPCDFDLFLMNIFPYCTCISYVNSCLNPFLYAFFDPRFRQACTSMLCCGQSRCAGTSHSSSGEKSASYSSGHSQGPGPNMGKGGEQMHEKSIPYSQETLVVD

In test [1] the test system is APJ oligomers (APJ-Rluc, APJ-VN173, APJ-VC155). The experiment in a line: BiFC-BRET, effect of agonist/antagonist treatment on APJ oligomerization. The note with it: CHO cells co-expressing APJ-Rluc, concentration not given, four independent experiments in triplicate. In kind it is cell-based, human. The method, then:
Additionally, BiFC-BRET assays were performed to detect APJ oligomerization in living cells. Two non-fluorescent fragments (pCE-BiFC-VN173 and pCE-BiFC-VC155) of Venus fluorescent protein were separately fused to APJ (APJ-VN173 and APJ-VC155) (Fig. 4A). CHO cells were then co-transfected with APJ-Rluc, APJ-VN173, and APJ-VC155 and observed with TIRFM.
Figure 4 Assessment of apelin receptor (APJ) oligomerization with bioluminescence resonance energy transfer - bimolecular fluorescence complementation (BiFC-BRET). (A) Principle of BiFC-BRET. The assay examines the formation of functional Venus by the complementation of protein fragments fused to APJ. Association of APJ enables formation of a bimolecular fluorescent complex. If all three tagged APJ proteins interact, BRET can occur. (B) TIRFM detection of APJ dimers (yellow particles) after BiFC. (C) Assessment of APJ oligomerization with BiFC-BRET. (D) Assessment of agonist-induced oligomerization.
(BRET reads energy transfer from a luciferase to a nearby fluorophore.)

In test [2] the test system is human umbilical vein endothelial cells (HUVECs). The experiment in a line: xCELLigence RTCA, apelin-13-induced cellular response (cell index) with or without interference peptide. In kind it is cell-based. The method, then: All curves were plotted as the average of quadruplicate treatments, with error bars shown as SEM.
A background step (step 1) was performed before other experimental steps. The background step was performed with each well of the E-Plate 16 containing only culture media (100 μl/well) for 30 min at 37 °C, prior to the addition of 10000 HUVECs per well (100 μl/well). […] The schedule settings were as follows (RTCA Software 2.0): […]

Another test concerns the target APJ (Homo sapiens, UniProt P35414). Particulars: xCELLigence RTCA, apelin-13 0 to 100 uM; average of quadruplicate treatments.
The target in a further test is APJ monomers (Homo sapiens, UniProt P35414). Particulars: CHO cells, 1 μM apelin-13.

“Also recorded” adds a separate entry of the source.

As for [Ala13]apelin-13, in test [1], the “BRET ratio versus unstimulated cells (APJ oligomerization, BiFC-BRET)” value is reported as “the same as that of unstimulated cells”.
Turning to apelin-13, the “HUVEC cell index (CI) after apelin-13 alone” value in test [2] (apelin-13 10 μM, 0.1 μM, 1 nM, 10000 HUVECs per well, average of quadruplicates) is given as “elicited a further increase in the HUVEC cell index (CI); also recorded: a transient increase in HUVEC CI”. In test [2] (apelin-13 stimulation of HUVECs), the “duration of transient increase in HUVEC CI after apelin-13” value was 2 to 3 h. For the same substance, on APJ, the “concentration for maximal effect” value was 10^−6 M. For the same substance, at APJ monomers (APJ monomers), the “G protein activation, Gα12” value was “not Gαs and Gα12”; the “G protein activation, Gα13” value was “activate”; the “G protein activation, Gαi1” value is “activate”; the “G protein activation, Gαi2” value is “activate”. Moreover, at APJ monomers (APJ monomers), the “G protein activation, Gαi3” value was “activate”; the “G protein activation, Gαo” value is “activate”; the “G protein activation, Gαq” value is reported as “activate”; the “G protein activation, Gαs” value is “not Gαs and Gα12”. Moreover, the “time to maximum BRET increase” value at APJ monomers (positive controls Gα-Rluc8 and APJ-Venus, for Gαi1, Gαi2, Gαi3, Gαq and Gαo) is given as ~ 5 min. The “BRET ratio versus unstimulated cells (APJ oligomerization, BiFC-BRET)” value in test [1] is “the same as that of unstimulated cells”.
